Test results: US20260092099A1 (SPIN THERAPEUTICS, published 2026)

T1: human neutrophil elastase (human, UniProt P08246 30-247, limits assumed)
T1 sequence (looked up): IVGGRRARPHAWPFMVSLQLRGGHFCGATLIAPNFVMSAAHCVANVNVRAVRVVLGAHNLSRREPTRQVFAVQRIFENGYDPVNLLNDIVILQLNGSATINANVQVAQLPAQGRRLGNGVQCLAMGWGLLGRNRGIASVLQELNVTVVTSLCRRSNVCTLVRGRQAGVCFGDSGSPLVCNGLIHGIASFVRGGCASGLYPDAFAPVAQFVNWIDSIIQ

B1: PP12288-J1350 AAT (wild type AAT-linker-albumin fusion) (other)
chain: EDPQGDAAQKTDTSHHDQDHPTFNKITPNLAEFAFSLYRQLAHQSNSTNIFFSPVSIATAFAMLSLGTKADTHDEILEGLNFNLTEIPEAQIHEGFQELLRTLNQPDSQLQLTTGNGLFLSEGLKLVDKFLEDVKKLYHSEAFTVNFGDTEEAKKQINDYVEKGTQGKIVDLVKELDRDTVFALVNYIFFKGKWERPFEVKDTEEEDFHVDQVTTVKVPMMKRLGMFNIQHCKKLSSWVLLMKYLGNATAIFFLPDEGKLQHLENELTHDIITKFLENEDRRSASLHLPKLSITGTYDLKSVLGQLGITKVFSNGADLSGVTEEAPLKLSKAVHKAVLTIDEKGTEAAGAMFLEAIPMSIPPEVKFNKPFVFLMIEQNTKSPLFMGKVVNPTQKGGSGGSGGSGGSGG[skipping about 600 residues]
B2: PP12291-J1353 M351V, M358L (mutant AAT-linker-albumin fusion) (other)
chain: EDPQGDAAQKTDTSHHDQDHPTFNKITPNLAEFAFSLYRQLAHQSNSTNIFFSPVSIATAFAMLSLGTKADTHDEILEGLNFNLTEIPEAQIHEGFQELLRTLNQPDSQLQLTTGNGLFLSEGLKLVDKFLEDVKKLYHSEAFTVNFGDTEEAKKQINDYVEKGTQGKIVDLVKELDRDTVFALVNYIFFKGKWERPFEVKDTEEEDFHVDQVTTVKVPMMKRLGMFNIQHCKKLSSWVLLMKYLGNATAIFFLPDEGKLQHLENELTHDIITKFLENEDRRSASLHLPKLSITGTYDLKSVLGQLGITKVFSNGADLSGVTEEAPLKLSKAVHKAVLTIDEKGTEAAGAVFLEAIPLSIPPEVKFNKPFVFLMIEQNTKSPLFMGKVVNPTQKGGSGGSGGSGGSGG[skipping about 600 residues]
B3: PP12289-J1351 C232S (mutant AAT-linker-albumin fusion) (other)
chain: EDPQGDAAQKTDTSHHDQDHPTFNKITPNLAEFAFSLYRQLAHQSNSTNIFFSPVSIATAFAMLSLGTKADTHDEILEGLNFNLTEIPEAQIHEGFQELLRTLNQPDSQLQLTTGNGLFLSEGLKLVDKFLEDVKKLYHSEAFTVNFGDTEEAKKQINDYVEKGTQGKIVDLVKELDRDTVFALVNYIFFKGKWERPFEVKDTEEEDFHVDQVTTVKVPMMKRLGMFNIQHSKKLSSWVLLMKYLGNATAIFFLPDEGKLQHLENELTHDIITKFLENEDRRSASLHLPKLSITGTYDLKSVLGQLGITKVFSNGADLSGVTEEAPLKLSKAVHKAVLTIDEKGTEAAGAMFLEAIPMSIPPEVKFNKPFVFLMIEQNTKSPLFMGKVVNPTQKGGSGGSGGSGGSGG[skipping about 600 residues]
B4: PP12290-J1352 M351V, M358V (mutant AAT-linker-albumin fusion) (other)
chain: EDPQGDAAQKTDTSHHDQDHPTFNKITPNLAEFAFSLYRQLAHQSNSTNIFFSPVSIATAFAMLSLGTKADTHDEILEGLNFNLTEIPEAQIHEGFQELLRTLNQPDSQLQLTTGNGLFLSEGLKLVDKFLEDVKKLYHSEAFTVNFGDTEEAKKQINDYVEKGTQGKIVDLVKELDRDTVFALVNYIFFKGKWERPFEVKDTEEEDFHVDQVTTVKVPMMKRLGMFNIQHCKKLSSWVLLMKYLGNATAIFFLPDEGKLQHLENELTHDIITKFLENEDRRSASLHLPKLSITGTYDLKSVLGQLGITKVFSNGADLSGVTEEAPLKLSKAVHKAVLTIDEKGTEAAGAVFLEAIPVSIPPEVKFNKPFVFLMIEQNTKSPLFMGKVVNPTQKGGSGGSGGSGGSGG[skipping about 600 residues]

target: T1, human neutrophil elastase; assay: cell-based or functional assay

IC50 (nM), neutrophil elastase inhibitory assay | Binder
34.6 nM | B1
31.1 nM | B2
45.3 nM | B3
33.7 nM | B4
